Literature values in patent publication US7138231B2 (priority 2000, dated 2006).

System: HIV-1
Details: cited from earlier work

## CC(C)(C)NC(=O)[C@@H]1C[C@@H]2CCCC[C@@H]2CN1C[C@@H](O)[C@H](Cc1ccccc1)NC(=O)[C@H](CC(N)=O)NC(=O)c1ccc2ccccc2n1 [saquinavir]
read-out: 90% inhibitory concentration (IC90)
  IC90: 6 nM

## Cc1c(O)cccc1C(=O)N[C@@H](CSc1ccccc1)[C@H](O)CN1C[C@H]2CCCC[C@H]2C[C@H]1C(=O)NC(C)(C)C [nelfinavir]
  effects when combined with other antiretroviral drugs: additive-to-synergistic effects
